Values quoted from earlier work in US20200129574A1, “AMARANTHUS BLITOIDES WITH VITAMIN D COMPOSITIONS TO ENHANCE VITAMIN D HALF-LIFE AND ACTIVATE VDR IN HUMANS AND METHODS OF USING SAME” (priority 2018, published 2020).

## Vitamin D
adults, long term daily ingestion
  daily ingestion at which toxicity observed: 25 µg/kg
adults, within two weeks
  daily ingestion producing acute toxicity: 375 µg/kg
Healthy adults
  dosage at which toxicity has been seen: above 1250 μg/day
